{"source": "patent US20170216277A1", "about": "“THERAPEUTIC USE OF […] AQUARETIC EFFECTS” (TREVI THERAPEUTICS, INC., priority 2016, published 2017)", "key": {"[1]": {"assay": "Urinalysis laboratory tests incl. urine specific gravity, TR01, healthy subjects (Cohort 2)", "details": "Study Days 7 and 14, any subject"}, "δ opioid receptor": {"system": "δ opioid receptor", "details": "in vitro; Gharagozlou et al., Neurosci. 2002 3:19; cited from earlier work"}}}
{"substance": "17-(cyclobutylmethyl)-4,5α-epoxymorphinian-3,6α,14-triol, hydrochloride [nalbuphine]", "values": [{"measurement": "Urine specific gravity relative to lowest pretreatment value", "setting": "[1]", "value": "did not decline relative to the lowest pretreatment value"}, {"measurement": "Activity at δ opioid receptor", "setting": "δ opioid receptor", "value": "δ opioid receptor antagonist"}]}
